# Measured values: PubChem BioAssay AID2098 (Broad Institute, 2009)
# This is a selection; strong and weak results do not stand in their true shares. Active and inactive are the calls of the source.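 The calls were made as follows: active = more than half of replicate wells show activity change below -50%, luminescence cut by over half; inconclusive = some wells, but at most half, below -50%; inactive = no replicate well below -50%.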
# Assay: blocking HSF1-driven luciferase expression – cell-based, NIH3T3, luminescence, primary screen (AID 2098);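 also: luciferase reports HSF-1 transcriptional activity via heat shock element; 0% = median of DMSO wells and -100% = zero luminescence signal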
# Conditions: NIH3T3-HGL HSE-luciferase, MG132-induced, luminescence 8 h; stronger effect = lower value; screened at 7.5 µM (by protocol)
row,Structure (SMILES),"activity change, negative = inhibition"
1,O=[As](O)(c1ccccc1Br)c1ccccc1Br,inactive: -1.3%
2,CC1(CBr)Cn2c(nc3ccccc3c2=O)S1 (stereo not given),inactive: 2.59%
3,CN(C(=O)Cc1ccc(Cl)c(Cl)c1)[C@@H]1CCCC[C@H]1N1CCCC1,inactive: 8.24%
4,CC(C)/C=N\N=C(\N)N[N+](=O)[O-],inactive: -11.4%
5,COc1ccccc1CNC(=O)COC(=O)C(O)(c1ccccc1)c1ccccc1,inactive: -3.61%
6,Clc1n[nH]nc1-c1nn[nH][15n]1,inactive: 1.49%
7,CC(C)(C)C(=O)NC(Sc1ncccn1)C(Cl)(Cl)Cl (stereo not given),inactive: 1.79%
8,CN(CCCl)Cc1cc(Cl)c(NC2=NCCN2)c(Cl)c1,inactive: -2.27%
9,CCOP(=O)(Nc1ccc(C)cn1)OCC,inactive: -2.99%
10,CCC1=CC2Cc3nc4ccc(Cl)cc4c(N)c3C(C1)C2 (stereo not given),inactive: 2.3%
11,O=P1(Nc2ccccn2)COc2ccccc2OC1,inactive: -18.1%
12,CCOP(=O)(NC(=NC(C)c1ccccc1)NC(C)c1ccccc1)OCC (stereo not given),inactive: -7.01%
13,Cc1ccc(OCC(=O)OC2CN3CCC2CC3)cc1 (stereo not given),inactive: -8.49%
14,O=[As](O)(c1cccs1)c1cccs1,inactive: 8.42%
15,Nc1cccc([As](=O)(O)c2ccccc2)c1,inactive: -5.17%
16,O=P1(Nc2ncccn2)COc2ccccc2OC1,inactive: -5.69%
17,O=C(/C=C/c1ccccc1)OC1CN2CCC1CC2 (stereo not given),inactive: -0.769%
18,CN(C)C1(CNC(=O)c2ccc(S(C)(=O)=O)cc2)CCCCC1,inactive: 3.54%
19,Cc1nn(-c2ccccc2)c2c1P(=O)(N1CCOCC1)N(C)C(c1ccccc1)=N2 (stereo not given),inactive: 3.88%
20,Cc1ccc(C(=O)OC2CN3CCC2CC3)cc1 (stereo not given),inactive: -0.423%
21,CC1CCC(C(C)C)C(OP(=O)(Nc2ccccn2)c2ccccc2)C1 (stereo not given),inactive: 1.74%
22,CN(C)C(=O)c1cc([N+](=O)[O-])cc2c1-c1c(cc([N+](=O)[O-])cc1[N+](=O)[O-])C2=O,inactive: 7.02%
23,O=[N+]([O-])c1ccc2c(c1)nnn2O,inactive: 1.47%
24,CN(C(=O)Cc1ccc(Cl)c(Cl)c1)[C@H]1CC[C@@]2(CCCO2)C[C@@H]1N1CCCC1,inactive: 0.784%
25,N#CCCN(C(=O)COC(=O)C(O)(c1ccccc1)c1ccccc1)c1ccc(F)cc1,inactive: -0.747%

row,Structure (SMILES),"activity change, negative = inhibition"
1,CCOP1(=S)c2c(C)nn(CCC#N)c2N=C(c2ccc(F)cc2)N1C (stereo not given),inactive: -12.4%
2,CN(C(=O)Cc1ccccc1)[C@@H]1CC[C@]2(CCCO2)C[C@H]1N1CCCC1,inactive: -1.54%
3,NC(=O)Nc1ccc([As](=O)(O)O)cc1,inactive: -1.09%
4,O=C(O)COc1ccc([As](=O)(O)O)cc1[N+](=O)[O-],inactive: -5.78%
5,Nc1ccccc1[As](=O)(O)c1ccccc1,inactive: -0.586%
6,CS(=O)(=O)c1cc([N+](=O)[O-])c2no[n+]([O-])c2c1,inactive: 8.66%
7,CCOP1(=S)c2c(C)nn(CCC#N)c2N=C(c2ccccc2F)N1C (stereo not given),inactive: 5.87%
8,O=P(Nc1nccs1)(c1ccccc1)c1nc2ccccc2s1 (stereo not given),inactive: -8.7%
9,O=P(Nc1nccs1)(Oc1ccccc1)Oc1ccccc1,inactive: 13.2%
10,COc1cc(C2NCCC3(OCCO3)C2(C)C)cc(OC)c1OC (stereo not given),inactive: -8.34%
11,CCOP(=O)(Nc1cccc2ccccc12)OCC,inactive: 1.26%
12,CCCOP(=S)(Nc1nc(N)cc(=O)[nH]1)OCCC,inactive: -8.36%
13,Cc1ccc(NCCc2c([N+](=O)[O-])cc([N+](=O)[O-])cc2[N+](=O)[O-])cc1,inactive: 21.9%
14,Nc1cccc2c([As](=O)(O)O)cccc12,inactive: -12%
15,O=[As](O)(c1cccc(O)c1)c1cccc(O)c1,inactive: -5.19%
16,Cc1cccc(OCC(=O)OC2CN3CCC2CC3)c1 (stereo not given),inactive: -11.1%
17,COc1cc(C(=O)NCC2(N3CCOCC3)CCCCC2)cc(Cl)c1OC(C)C,inactive: -0.581%
18,O=[As](O)(O)c1cccnc1,inactive: -3.33%
19,CS(=O)(=O)c1ccc(Cl)c(NC(=O)COC(=O)C(O)(c2ccccc2)c2ccccc2)c1,inactive: -1.26%
20,O=C(OC1CN2CCC1CC2)c1ccc(Cl)cc1 (stereo not given),inactive: -6.44%
21,COc1ccc(N/C(=N/P(=O)(N2CCOCC2)N2CCOCC2)N2CCOCC2)cc1,inactive: -4.07%
22,COc1ccc2nc(NP(=O)(c3ccccc3)c3ccccc3)sc2c1,inactive: 1.73%
23,COc1cc(I)ccc1[As](=O)(O)O,inactive: -2.82%
24,O=C(OC1CN2CCC1CC2)C12CC3CC(CC(C3)C1)C2 (stereo not given),inactive: -7.08%
25,Cc1cc(=O)[nH]c(N[N+](=O)[O-])n1,inactive: 4.14%
